Among the data in ChEMBL document CHEMBL2407066, “Discovery, synthesis, and structure-activity relationships of 2-aminoquinazoline derivatives as a novel class of metabotropic glutamate receptor 5 negative allosteric modulators” (Bioorg Med Chem Lett, 2013) are Ratio IC50 values, retold here.

Each structure is given as a SMILES string.

This assay is filed under the species Homo sapiens. As to the kind of experiment: Selectivity ratio of IC50 for human recombinant MAO-B to IC50 for human mGluR5.

Take `Cc1ccc(Nc2ncc3c(n2)CC(C)CC3=O)cc1` (racemic): the Ratio IC50 is 0.09.
